Results reported in US20220401514A1, “ANTIMICROBIAL, BACTERIOPHAGE-DERIVED POLYPEPTIDES AND THEIR USE AGAINST GRAM-NEGATIVE AND ACID-FAST BACTERIA” (CONTRAFECT CORPORATION, priority 2019, published 2022).

Experiments:
[1] = Stability assessment: fold change in MIC after incubation in 100% human serum; assay type: in vitro ADME; settings: for stability (fold change in MIC) in 100% human serum: 37° C., 1 hour, and 2 hours; for Fold change in MIC: incubation in 100% human serum at 37° C.
human red blood cells = assay: Hemolytic activity, minimal hemolytic concentration (MHC); assay type: cell-based; settings: for Minimal hemolytic concentration (MHC): human red blood cells
[2] = Stability assessment in rabbit serum; assay type: in vitro ADME; settings: incubation in rabbit serum at 37° C.
[3] = Stability assessment in 100% CAA; assay type: in vitro ADME; settings: incubation in 100% CAA at 37° C.

| Substance | stability (fold change in MIC) in 100% human serum ([1]; 10 minutes) | Fold change in MIC ([1]; 10 minutes) | Fold change in MIC ([1]; 1 hour) | Fold change in MIC ([1]; 2 hours) | Minimal hemolytic concentration (MHC) (human red blood cells) | Fold Change in MIC (rabbit serum) ([2]; 10 min.) | Fold Change in MIC (rabbit serum) ([2]; 1 hour) | Fold Change in MIC (rabbit serum) ([2]; 2 hours) | Fold change in MIC (100% CAA) ([3]; 10 min.) | Fold change in MIC (100% CAA) ([3]; 1 hour) | Fold change in MIC (100% CAA) ([3]; 2 hours) | hemolytic concentration range (human red blood cells; positive control detergent) |
| --- | --- | --- | --- | --- | --- | --- | --- | --- | --- | --- | --- | --- |
| MAGKKMVSKGKDRQIFRKTADRTKKMNVRPLLYRGGIRL [Chp12] | adequately stable | 1 | 1 | 1 | >128 µg/mL | 1 | 1 | 1 |  |  |  |  |
| MAKKIRNKARDRRIFTRTASRMHKANRTPRFMRGGIRL [ALCES1] | adequately stable | 1 | 1 | 1 | >128 µg/mL |  |  |  |  |  |  |  |
| MAKKMTKGKDRQVFRKTADRTKKLNVRPLLYRGGIRL [Chp11] | adequately stable |  |  |  | >128 µg/mL | 1 | 1 | 1 |  |  |  |  |
| MAKRHKIPQRASQHSFTRHAQKVHPKNVPRLPMRGGIRL [AVQ244] | adequately stable | 1 | 1 | 0.5 | >128 µg/mL | 1 | 1 | 1 |  |  |  |  |
| MARRKKMKGKRDKRVFKQTANKTKAINISPKNMRGGTRL [Unp3] | adequately stable | 1 | 1 | 1 | >128 µg/mL | 1 | 1 | 1 |  |  |  |  |
| MARRRYRLPRRRSRRLFSRTALRMHPRNRLRRIMRGGIRF [Chp6] | adequately stable | 1 | 1 | 1 | >128 µg/mL | 1 | 1 | 1 |  |  |  |  |
| MARRYRLSRRRSRRLFSRTALRMHRRNRLRRIMRGGIRF | adequately stable | 1 | 1 | 0.5 | >128 µg/mL | 1 | 2 | 4 |  |  |  |  |
| MARSRRRMSKRSSRRSFRKYAKSHKKNFKARSMRGGIRL [Ecp2] | adequately stable | 1 | 2 | 2 | >128 µg/mL | 1 | 1 | 1 |  |  |  |  |
| MARSRRRMSKRSSRRSFRKYAKSHKKNFKARSMRGGIRL [Ecp4] |  |  |  |  | >128 µg/mL |  |  |  |  |  |  |  |
| MARSRRRMSKRSSRRSFRKYAKTHKKNFKARSMRGGIRL [Ecp3] | adequately stable | 1 | 1 | 1 | >128 µg/mL | 1 | 1 | 2 |  |  |  |  |
| MARSRRRMSKRSSRRSFRKYAKTHKRNFKARSMRGGIRL [Ecp1] | adequately stable | 1 | 4 | 1 | >128 µg/mL | 1 | 2 | 1 |  |  |  |  |
| MAYRGFKTSRVVKHRVRRRWFNHRRRYR [Spi1] | adequately stable | 1 | 2 | 2 | >128 µg/mL | 1 | 1 | 2 |  |  |  |  |
| MCKKVCKKCPKKGPKNAPKIGAFYERKTPRLKQST [CPAR39] | adequately stable | 1 | 0.5 | 0.5 | >128 µg/mL | 1 | 0.5 | 0.25 |  |  |  |  |
| MIVRRHKMSRRRSRKLFSKTASRTRSKNLRSRPMRGGYRI [Unp4] |  |  |  |  | >128 µg/mL |  |  |  |  |  |  |  |
| MKMRKRTDKRVFTRTAAKSKKVNIAPKIFRGGIRL [Unp1] | adequately stable | 1 | 0.5 | 2 |  | 1 | 1 | 1 |  |  |  |  |
| MKPLKRKPVQKARSAAKFRRNVSTVKAANMAVKPMRGGWRF [Fen7875] |  |  |  |  |  | 1 | 1 | 1 |  |  |  |  |
| MKRKPMSRKASQKTFKKNTGVQRMNHLNPRAMRGGIRL [Bdp1] | adequately stable | 1 | 1 | 0.25 | >128 µg/mL | 1 | 1 | 1 | 1 | 1 | 0.5 |  |
| MKRRKLSKKKSRKIFTRGAVNVKKRNLRARPMRGGFRI [Chp10] | adequately stable | 1 | 2 | 2 | >128 µg/mL | 1 | 1 | 1 | 1 | 0.5 | 0.5 |  |
| MKRRKMTRKGSKRLFTATADKTKSINTAPPPMRGGIRL [Chp7] | adequately stable | 1 | 1 | 1 | >128 µg/mL | 2 | 0.5 | 0.5 | 1 | 1 | 1 |  |
| MLTVWSDTPTIKRRKDMYRKRMSRKKSKKVFAKTAMKVNKRNHVKPMRGGYRI [Gkh3] | adequately stable | 1 | 1 | 1 | >128 µg/mL | 1 | 1 | 1 | 1 | 0.5 | 0.5 |  |
| MMKYRKKMSAKSSRKQFTKGAMKVKGKNFTKPMRGGIRL [Unp5] | adequately stable | 1 | 1 | 4 | >128 µg/mL | 1 | 1 | 0.5 | 1 | 1 | 0.5 |  |
| MRKKMHKSLDKRVFNRTAKKSKKINVNPVVYRGGIRL [CDL907] | adequately stable | 1 | 1 | 1 | >128 µg/mL |  |  |  |  |  |  |  |
| MRKRMSKRVDKKVFRRTAASAKKINIDPKIYRGGIRL [Osp1] | adequately stable | 1 | 0.5 | 1 | >128 µg/mL | 1 | 1 | 0.5 | 2 | 1 | 0.5 |  |
| MRLKMARRRYRLPRRRSRRLFSRTALRMHPRNRLRRIMRGGIRF | adequately stable | 1 | 1 | 2 | >128 µg/mL | 1 | 2 | 2 | 1 | 0.5 | 0.5 |  |
| MRPVKRSRVNKARSAGKFRKQVGKTKMANLRSNPMRGGWRL [HH3930] |  |  |  |  |  | 1 | 1 | 1 |  |  |  |  |
| MRRKKMSRGKSKKLFRRTAKRVHRKNLRARPMRGGIRM [AVQ206] | adequately stable | 1 | 1 | 1 | >128 µg/mL | 1 | 1 | 1 | 1 | 2 | 0.5 |  |
| Triton X-100 [reference compound] |  |  |  |  |  |  |  |  |  |  |  | 2% to 0.007% |
